According to US7528227B2, “Histone H2A peptide derivatives and uses thereof” (dated 2009):

system: SM-induced ear edema; test: SM-induced ear edema, subcutaneous administration at ear base; details: sc 50 μg per site 30 min after SM exposure; ear thickness 96 hours after exposure; percent of reduction in ear swelling vs control group

Point of comparison: “H-Arg-Leu-Leu-Arg-Lys-Gly-His-Tyr-Ala-Glu-Arg-Val-Gly-OH”, “protection (%)” value 0%. Against it:
- H-Arg-Leu-Leu-Arg-Lys-Gly-His-Tyr-Ala-Glu-Arg-Val-Gly-Ala-Gly-OH — the same, 0%
- H-Arg-Leu-Leu-Arg-Lys-Gly-His-Tyr-Ala-Glu-Arg-Val-Gly-Ala-OH — the same, 0%
- H-Arg-Lys-Gly-His-Tyr-Ala-Glu-Arg-Val-Gly-Ala-OH — higher, 11%
- H-Arg-Lys-Gly-His-Tyr-Ala-Glu-Arg-Val-Gly-OH — higher, 25%
- H-Leu-Arg-Lys-Gly-His-Tyr-Ala-Glu-Arg-Val-Gly-Ala-Gly-OH — the same, 0%
- H-Leu-Arg-Lys-Gly-His-Tyr-Ala-Glu-Arg-Val-Gly-Ala-OH — the same, 0%
- H-Leu-Arg-Lys-Gly-His-Tyr-Ala-Glu-Arg-Val-Gly-OH — the same, 0%
- H-Leu-Leu-Arg-Lys-Gly-His-Tyr-Ala-Glu-Arg-Val-Gly-Ala-Gly-OH — higher, 6%
- H-Leu-Leu-Arg-Lys-Gly-His-Tyr-Ala-Glu-Arg-Val-Gly-Ala-OH — the same, 0%
- H-Lys-Gly-His-Tyr-Ala-Glu-Arg-Val-Gly-Ala-Gly-OH — the same, 0%
- H-Lys-Gly-His-Tyr-Ala-Glu-Arg-Val-Gly-Ala-OH — the same, 0%

same assay, conditions: sc 50 μg per site at time intervals after SM; 96 hours after exposure; FIG. 3

With H-Lys-Gly-His-Tyr-Ala-Glu-Arg-OH the “effect on SM-induced ear edema” value was “protective effect”.

same assay, conditions: sc 30 min after SM, as a function of peptide concentration; 120 hours after exposure; FIG. 2

“H-Lys-Gly-MeHis-MeTyr-Ala-Glu-Arg-Val-Gly-OH” was tested, and the “effect on SM-induced ear edema” value was “protective effect”.

system: SM-induced skin lesions; test: SM-induced skin lesions in guinea pigs; details: intracardial 1 mg/kg, 7 days or 7, 5, 3 days and 20 min prior to SM; FIG. 11A-C

With KGNYAERIA the “protection against SM-induced skin lesions (ulceration area)” value was “statistically significant protection”.
